Reference: patent publication US20230295259A1 (Protagonist Therapeutics, Inc., priority 2020, published 2023)
Like-named read-outs stand apart in the source and are kept apart here.

How the values were obtained:
[1] = target: T1, ferroportin (endogenously expressed in T47D cells) (Homo sapiens, UniProt Q9NP59); experiment: T47D cell-based ferroportin internalization assay in presence of 0.5% mouse serum albumin (AF647-conjugated detection peptide, flow cytometry)
T1 construct: is a human breast carcinoma adherent cell line which endogenously expresses ferroportin; host or cells: T47D
T1 sequence (Q9NP59 1-571): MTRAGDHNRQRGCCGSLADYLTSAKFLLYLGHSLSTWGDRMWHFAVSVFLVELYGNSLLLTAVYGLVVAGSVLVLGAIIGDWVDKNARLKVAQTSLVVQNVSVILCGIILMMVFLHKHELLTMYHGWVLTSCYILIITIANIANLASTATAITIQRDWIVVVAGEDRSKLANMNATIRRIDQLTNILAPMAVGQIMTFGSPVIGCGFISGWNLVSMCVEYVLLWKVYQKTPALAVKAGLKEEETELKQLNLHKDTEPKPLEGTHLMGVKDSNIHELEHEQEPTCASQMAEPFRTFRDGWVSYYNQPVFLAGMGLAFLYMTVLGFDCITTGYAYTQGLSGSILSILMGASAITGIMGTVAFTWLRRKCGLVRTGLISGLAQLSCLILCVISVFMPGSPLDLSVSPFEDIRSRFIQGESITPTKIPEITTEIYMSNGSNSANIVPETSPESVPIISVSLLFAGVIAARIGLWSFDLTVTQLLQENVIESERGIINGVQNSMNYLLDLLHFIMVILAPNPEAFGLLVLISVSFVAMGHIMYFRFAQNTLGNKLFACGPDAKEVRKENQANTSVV

[2] = Stability in simulated intestinal fluid (FaSSIF with 1% pancreatin); format: in vitro ADME
Experimental: FaSSIF was prepared by dissolving 1.2 g porcine pancreatin (Chem-supply, PL378) in 100 mL Blank FaSSIF and stirred at room temperature for 30 minutes. The solution was filtered through 0.45 μm membrane and aliquot and stored at −20° C.
(§1) Experimental compounds of interest (20 μM) were incubated with pre-warmed FaSSIF (1% pancreatin in final incubation mixture) at 37° C. Aliquots were taken at various time points up to 24 hours (e.g. 0, 0.25, 1, 3, 6 and 24 hr), and immediately quenched with 4 volumes of organic solvent (acetonitrile/methanol (1:1) and 0.1% formic acid, containing 1 μM internal standard). Quenched samples were stored at 4° C. until the end of the experiment and centrifuged at 4,000 rpm for 10 minutes. The supernatant was diluted 1:1 with deionized water and analyzed using LC-MS. Percentage remaining at each time point was calculated based on the peak area ratio (analyte over internal standard) relative to the initial level at time zero. Half-lives were calculated by fitting to a first-order exponential decay equation using GraphPad.
Compounds of interest (at concentration of 20 μM) were mixed with pre-warmed FaSSIF (1% pancreatin in final working solution). The solution mixture was aliquoted and incubated at 37° C. The number of aliquots required was equivalent to the number of time points (e.g. 0, 0.25, 1, 3, 6 and 24 hr). At each time point, one aliquot was taken and immediately quenched with 4 volumes of organic solvent (acetonitrile/methanol (1:1) and 0.1% formic acid, containing 1 μM internal standard). The remaining steps were the same as the generic experimental.

[3] = Stability in simulated gastric fluid (SGF with pepsin, pH 1.2); format: in vitro ADME
Experimental: Blank SGF was prepared by adding 2 g sodium chloride, 7 mL hydrochloric acid (37%) in a final volume of 1 L water, and adjusted pH to 1.2.
SGF was prepared by dissolving 320 mg Pepsin (Sigma®, P6887, from Porcine Stomach Mucosa) in 100 mL Blank SGF and stirred at room temperature for 30 minutes. The solution was filtered through 0.45 μm membrane and aliquot and stored at −20° C.
as §1, with “interest (at a concentration of 20” for “interest (20”, “pre-warmed SGF” for “pre-warmed FaSSIF (1% pancreatin in final incubation mixture)”, “hours (e.g.,” for “hours (e.g.”, “supernatant were” for “supernatant was”

[4] = target: T2, human ferroportin (Homo sapiens, UniProt Q9NP59); experiment: FPN activity assay: internalization/degradation of ferroportin-GFP in stably transfected HEK293 cells (decrease in GFP fluorescence); format: cell-based
T2 construct: expressed in transfected cells
T2 sequence (Q9NP59 1-571): T1 sequence (Q9NP59 1-571)
Experimental: Following internalization, the ferroportin protein is degraded.
A retro inverse peptide is a peptide with a reversed sequence in all D amino acids. An example is that Hy-Glu-Thr-His-NH2 becomes Hy-DHis-DThr-DGlu-NH2. The EC50 of these reference compounds for ferroportin internalization/degradation was determined according to the FPN activity assay described above. These peptides served as control standards.
These values were determined as described herein.

[5] = read-out: IC50: T47D Internalization MSA
[6] = Table 2A, 20 μM in FaSSIF with 1% pancreatin, 37° C., percent in brackets not explained
[7] = Table 2A, 20 μM in SGF with pepsin, pH 1.2, 37° C., percent in brackets not explained
[8] = Table 2B, HEK293 cells expressing human ferroportin-GFP, at least 18 hours incubation, read-out: FPN EC50
[9] = Table 2C, class symbols, read-out: FPN IC50
[10] = read-out: T47D IC50, Table 2C, class symbols
[11] = Table 2C, numeric values of reference compounds, read-out: FPN IC50
[12] = Table 2C, percent in brackets on next line not explained

| Substance | IC50 [1, 5] | DC50 [4, 8] | DC50 [4, 9] | IC50 [1, 10] | also measured |
| --- | --- | --- | --- | --- | --- |
| Isovaleric Acid-E-T-H-[Dpa]-P-[Cys]-I-[(D)Lys]-[bhPhe]-[Lys(2Peg11′_Palm)]-[(D)Lys]-[Cys]-NH2 [Compound 3] | 6.69 nM |  |  |  | SIF Half life [2, 6]: >750 min; SGF Half life [3, 7]: >700 min |
| Isovaleric Acid-E-T-H-[Dpa]-P-[Cys]-I-[(D)Lys]-[bhPhe]-[Lys(2Peg11′_Palm)]-[Cys]-[(D)Lys]-NH2 [Compound 4] |  |  |  |  | DC50 ([4]; Table 2A, HEK293 cells expressing human ferroportin-GFP, at least 18 hours incubation, read-out: FPN EC50): 17 nM; SGF Half life [3, 7]: 624 min |
| Isovaleric Acid-E-T-H-[Dpa]-P—C—I-[Lys(1PEG2_1PEG2_IsoGlu_C12_Diacid)]-[bhPhe]-[(D)Lys]-C—NH2 [Compound 234] | 51.2 nM | 11.5 nM |  |  |  |
| Isovaleric Acid-E-T-H-[Dpa]-P—C—I-[Lys(1PEG2_1PEG2_IsoGlu_C14_Diacid)]-[bhPhe]-[(D)Lys]-C—NH2 [Compound 233] | 63.5 nM | 12.2 nM |  |  |  |
| Isovaleric Acid-E-T-H-[Dpa]-P—C—I-[Lys(1PEG2_1PEG2_IsoGlu_C16_Diacid)]-[bhPhe]-[(D)Lys]-C—NH2 [Compound 232] | 50.4 nM | 16.4 nM |  |  |  |
| Isovaleric Acid-E-T-H-[Dpa]-P—C—I-[Lys(PEG4_IsoGlu_C18_Diacid)]-[bhF]-[(D)Lys]-C—NH2 [Compound 239] | 116 nM | 29 nM |  |  |  |
| Isovaleric Acid-E-T-H-[Dpa]-P—C—I-[Lys(PEG12_Ahx_C18 acid)]-[bhPhe]-[(D)Lys]-C—NH2 [Compound 307] | 0.89 nM | 10.6 nM |  |  |  |
| Isovaleric Acid-E-T-H-[Dpa]-P—C—I-[Lys(PEG12_C16_Diacid)]-[bhPhe]-[(D)Lys]-C—NH2 [Compound 265] | 31.3 nM | 10.7 nM |  |  |  |
| Isovaleric Acid-E-T-H-[Dpa]-P—C—I-[Lys(PEG12_C18_Diacid)]-[bhPhe]-[(D)Lys(PEG11_OMe)]—C—NH2 [Compound 293] | 58.2 nM | 25.4 nM |  |  |  |
| Isovaleric Acid-E-T-H-[Dpa]-P—C—I-[Lys(PEG12_IsoGlu_Palm)]-[bhPhe]-[(D)Lys(PEG11_OMe)]—C—NH2 [Compound 291] | 2.22 nM | 12.2 nM |  |  |  |
| Isovaleric Acid-E-T-H—F—P-[Cys]-I-[(D)Lys]-F-[Lys(2Peg11′_Palm)]-K-[Cys]-NH2 [Compound 1] |  |  |  |  | SGF Half life [3, 7]: 6 min |
| Isovaleric Acid-E-T-H—F—P—C—I-[Lys(1PEG2_1PEG2_IsoGlu_C18_Diacid)]-F-E-P—R—S—K-G-[Pen]-K—NH2 [Compound 205] | 349 nM | 260 nM |  |  |  |
| Isovaleric Acid-E-T-H—F—P—C—I-[Lys(IsoGlu_Palm)]-F-E-P-[Lys(Ac)]-S—K-G-C—K—NH2 [Compound 228] | 31.7 nM | 12 nM |  |  |  |
| Isovaleric Acid-[IsoGlu]-T-H-[Dpa]-P—C—I-[Lys(1PEG2_1PEG2_Ahx_C18_Diacid)]-[bhPhe]-[(D)Lys]-C—NH2 [Compound 299] | 69 nM | 22 nM |  |  |  |
| Isovaleric acid-DTHFPCIKF-Lys[2Peg11′-Palm]-PRSKGCK—NH2 [2 (Ref-1)] |  |  |  |  | SIF Half life (min) [2, 6]: <15 (1%) min; SIF Half life ([2]; Table 2A, 20 μM in FaSSIF with 1% pancreatin, 37° C., percent in brackets not explained, listed as 2): 84 min; SGF Half life (min) [3, 7]: <15 (6%) min; SGF Half life ([3]; Table 2A, 20 μM in SGF with pepsin, pH 1.2, 37° C., percent in brackets not explained, listed as 2): 540 min |
| [Isovaleric Acid]-E-L-H-[Dpa]-P—C—I-[(D)Lys]-[bhPhe]-[Lys(Ahx_Palm)]-[(D)Lys]-C—NH2 [Compound 617] |  |  | 31 to 100 nM | 11 to 100 nM |  |
| [Isovaleric Acid]-E-S-H-[Dpa]-P—C—I-[(D)Lys]-[aMePhe]-[Lys(PEG12_Palm)]-[(D)Lys]-C—NH2 [Compound 611] |  |  | > 500 nM | 11 to 100 nM |  |
| [Isovaleric Acid]-E-T-A-[Dpa]-P—C—I-[(D)Lys]-[bhPhe]-[Lys(Ahx_Palm)]-[(D)Lys]-C—NH2 [Compound 614] |  |  | 1 to 30 nM | 11 to 100 nM |  |
| [Isovaleric Acid]-E-T-L-[Dpa]-P—C—I-[(D)Lys]-[bhPhe]-[Lys(Ahx_Palm)]-[(D)Lys]-C—NH2 [Compound 618] |  |  | 101 to 500 nM | 101 to 500 nM |  |
| [Isovaleric Acid]-E-T-[2Pal]-[Dpa]-P—C—I-[(D)Lys]-[bhPhe]-[Lys(PEG12_Palm)]-R—C—NH2 [REF2] |  |  |  |  | DC50 [4, 11]: 13 nM; SIF Half life [2, 12]: <15 min; SGF Half life [3, 12]: 26 min |
| [Isovaleric Acid]-E-T-[3Pal]-[Dpa]-P—C—I-[(D)Lys]-[bhPhe]-[Lys(PEG12_Palm)]-R—C—NH2 [Compound 620] |  |  | 31 to 100 nM | 11 to 100 nM |  |
| [Isovaleric Acid]-E-T-[3Pal]-[Dpa]-P—C—I-[(D)Lys]-[bhPhe]-[Lys(PEG12_Palm)]-R—C—NH2 [REF1] |  |  |  |  | DC50 [4, 11]: 30 nM; SIF Half life [2, 12]: <15 min; SGF Half life [3, 12]: <15 min |
| [Isovaleric Acid]-E-T-[Dab]-[Dpa]-P—C—I-[(D)Lys]-[bhPhe]-[Lys(PEG12_Palm)]-R—C—NH2 [Compound 602] |  |  | 31 to 100 nM | 1 to 10 nM |  |
| [Isovaleric Acid]-E-T-[Dap]-[Dpa]-P—C—I-[(D)Lys]-[bhPhe]-[Lys(PEG12_Palm)]-R—C—NH2 [Compound 603] |  |  | > 500 nM | 11 to 100 nM |  |
| [Isovaleric Acid]-E-T-[N—MeHis]-[Dpa]-P—C—I-[(D)Lys]-[bhPhe]-[Lys(Ahx_Palm)]-[(D)Lys]-C—NH2 [Compound 616] |  |  | 31 to 100 nM | 11 to 100 nM |  |
| [Isovaleric Acid]-E-T-[Orn]-[Dpa]-P—C—I-[(D)Lys]-[bhPhe]-[Lys(PEG12_Palm)]-R—C—NH2 [Compound 604] |  |  | 1 to 30 nM | 1 to 10 nM |  |
| [Isovaleric Acid]-E-[(D)Asp]-H-[Dpa]-P—C—I-[(D)Lys]-[bhPhe]-[Lys(PEG12_Palm)]-R—C—NH2 [Compound 607] |  |  | 1 to 30 nM | 1 to 10 nM |  |
| [Isovaleric Acid]-E-[Dab]-H-[Dpa]-P—C—I-[(D)Lys]-[bhPhe]-[Lys(PEG12_Palm)]-[(D)Lys]-C—NH2 [Compound 610] |  |  | 31 to 100 nM | 1 to 10 nM |  |
| [Isovaleric Acid]-E-[Dap]-H-[Dpa]-P—C—I-[(D)Lys]-[bhPhe]-[Lys(PEG12_Palm)]-R—C—NH2 [Compound 606] |  |  | 31 to 100 nM | 11 to 100 nM |  |
